Values quoted from earlier work, collected in patent publication US20030232064A1.
Some compounds may have been tested in ways that are not shown here.

Conditions: stored under pressure in cylinders

FCOC(C(F)(F)F)C(F)(F)F
storage period without measurable degradation: 5-7 years
